AlphaSeq binding of Ab-14 heavy chain variants to a spike HR2 peptide

Data: MIT Lincoln Laboratory AlphaSeq set, Li et al. 2023, doi:10.1038/s41467-023-39022-2, as distributed in FLAb.

The target is the same throughout: PDVDLGDISGINAS, from the HR2 region of SARS-CoV-2 spike.

Parent scFv Ab-14: VH joined to VL by the linker GGGGSGGGGSGGGGS. Changes lie in the heavy chain CDRs alone.
VH: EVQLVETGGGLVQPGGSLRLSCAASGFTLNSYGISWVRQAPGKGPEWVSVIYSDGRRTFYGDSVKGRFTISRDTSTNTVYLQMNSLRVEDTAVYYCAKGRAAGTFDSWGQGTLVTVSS
VL: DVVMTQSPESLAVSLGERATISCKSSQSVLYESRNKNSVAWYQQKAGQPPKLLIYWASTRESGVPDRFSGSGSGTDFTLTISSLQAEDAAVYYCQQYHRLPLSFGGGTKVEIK

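The parent was found by panning a naive human phage display library on the peptide. These sequences belong to a second round, designed from the earlier measurements on random variants of the parent. Group labels follow the data file (Ctrl: baseline library sampled from a position-specific scoring matrix, with some repeated check sequences; Rand: our label for a block that the file lists under HC and that is probably the random mutants of the ten best first-round binders; GP: Gaussian process model; GPLM: also part of the Gaussian process libraries; HC: hill climbing; Gen: genetic algorithm; Gibbs: Gibbs sampling; a sequence that several methods proposed may carry one label only). Affinity was read by AlphaSeq, a pooled yeast mating assay with surface-displayed partners. Mating (16 h, 30 °C) was followed by selection of diploids and sequencing of their barcodes. A regression on co-assayed BCL2-family reference pairs converts the normalised counts of each replicate to an apparent Kd. Mating was done six times.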

Positions count from residue 1 of the parent VH; S31E puts E in place of S.
This list holds designs with at most six substitutions.
Affinities are written as log10 Kd with Kd in nM; a lower number is a better binder.
The mean shown is taken over the replicates in which the pair was detected.
An entry "nd" has no value in the source: the pair was not observed among the diploids in any replicate. This suggests poor binding but is not conclusive.

For S31E/R56H [Ctrl], the assay gave 0.66 (6 of 6 replicates; controls 0 of 18).
For T28S/S31E/R100N/S107Q [GP_Gibbs], the assay gave -1.81 (6 of 6 replicates; controls 0 of 18).
For F27E/N30E/G61I/S63N [Ctrl], the assay gave 2.19 (1 of 6 replicates; controls 0 of 18).
For S31E/G61S/G103V [GPLM_HC], the assay gave nd (0 of 6 replicates; controls 1 of 18).
For T28S/S31E/G61Q/R100K [GP_Gen], the assay gave 0.58 (1 of 6 replicates; controls 1 of 18).
For T28S/G61A/S63D/A101T/S107K [GP_Gibbs], the assay gave 0.44 (6 of 6 replicates; controls 0 of 18).
For T28D/S63P/R100Q/A101T [GP_Gen], the assay gave 2.02 (6 of 6 replicates; controls 0 of 18).
For S31D/R56T/G61S [GP_HC], the assay gave 1.31 (6 of 6 replicates; controls 0 of 18).
For S53A/D62G/A101W [Ctrl], the assay gave 2.45 (2 of 6 replicates; controls 0 of 18).
For F105G [Ctrl], the assay gave 2.69 (1 of 6 replicates; controls 0 of 18).
For T28D/F59A/A101C [GP_Gen], the assay gave 0.86 (6 of 6 replicates; controls 1 of 18).
For L29P/S31D/R56K/G99V/G103D/S107W [Ctrl], the assay gave 0.91 (3 of 6 replicates; controls 0 of 18).
For T28H/S107D [Ctrl], the assay gave nd (0 of 6 replicates; controls 0 of 18).
For T28S/G61D/R100E [GPLM_Gen], the assay gave 0.48 (6 of 6 replicates; controls 0 of 18).
For G61K/S63F/D106C [Ctrl], the assay gave 2.08 (2 of 6 replicates; controls 0 of 18).
For T28N/R100E/S107T [GP_Gen], the assay gave 0.85 (6 of 6 replicates; controls 0 of 18).
For T28E/S31E/Y60R/G103V/F105Q/S107Q [Rand], the assay gave nd (0 of 6 replicates; controls 0 of 18).
For R100K/A101N [Ctrl+GPLM_Gibbs], the assay gave 1.56 (9 of 12 replicates; controls 0 of 36).
For T28S/S31N/A101T/S107A [GPLM_Gen], the assay gave 0.31 (6 of 6 replicates; controls 0 of 18).
For N30M/S31Q/G61S/A101Q/T104F [Rand], the assay gave nd (0 of 6 replicates; controls 0 of 18).
For G26M/T28D/R100N [GP_Gen], the assay gave 1.36 (2 of 6 replicates; controls 0 of 18).
For T28S/S31E/A101E/S107N [GPLM_Gibbs], the assay gave -0.28 (6 of 6 replicates; controls 1 of 18).
For N30D/G61A/S63R/S107V [GP_Gibbs], the assay gave 1.77 (5 of 6 replicates; controls 0 of 18).
For G26L/T28Q/S31E/G61R/A101T [GP_HC], the assay gave 1.23 (6 of 6 replicates; controls 1 of 18).
For S31D/D106C/S107V [GP_HC], the assay gave nd (0 of 6 replicates; controls 0 of 18).
For T28E/G61S/A101T/S107A [GP_Gibbs], the assay gave -0.33 (6 of 6 replicates; controls 0 of 18).
For T28Y/N30D/Y52R/F105A/D106L [Rand], the assay gave nd (0 of 6 replicates; controls 0 of 18).
For T28E/S31D/A101T/S107A [GP_Gen], the assay gave 0.53 (6 of 6 replicates; controls 0 of 18).
For G26S/S53A/R100E/D106K [GP_HC], the assay gave 2.11 (1 of 6 replicates; controls 0 of 18).
For K65V/A101M [Ctrl], the assay gave nd (0 of 6 replicates; controls 0 of 18).
For R56L/G61H [Ctrl], the assay gave nd (0 of 6 replicates; controls 1 of 18).
For G26Q/R100E/A101L [Ctrl], the assay gave 2.14 (3 of 6 replicates; controls 0 of 18).
For T28D/S63K/R100K/A101T [GP_Gen], the assay gave 0.90 (4 of 6 replicates; controls 0 of 18).
For T28S/S31E/G61D/A101F [GPLM_HC], the assay gave nd (0 of 6 replicates; controls 0 of 18).
For T28E/S31N/F59A [GP_Gibbs], the assay gave 2.86 (2 of 6 replicates; controls 1 of 18).
For G26K/S53A [GPLM_Gen], the assay gave 0.06 (6 of 6 replicates; controls 1 of 18).
For T28N/S63A/A101N [GP_Gibbs], the assay gave 0.95 (4 of 6 replicates; controls 1 of 18).
For S31E/R100H [GP_HC], the assay gave 1.54 (2 of 6 replicates; controls 0 of 18).

The 6 strongest on average among those seen in every replicate, once more:

| changes | group | mean log10 Kd (nM) | seen in | empty controls |
|---|---|---|---|---|
| T28S/S31E/R100N/S107Q | GP_Gibbs | -1.81 | 6 of 6 | 0 of 18 |
| T28E/G61S/A101T/S107A | GP_Gibbs | -0.33 | 6 of 6 | 0 of 18 |
| T28S/S31E/A101E/S107N | GPLM_Gibbs | -0.28 | 6 of 6 | 1 of 18 |
| G26K/S53A | GPLM_Gen | 0.06 | 6 of 6 | 1 of 18 |
| T28S/S31N/A101T/S107A | GPLM_Gen | 0.31 | 6 of 6 | 0 of 18 |
| T28S/G61A/S63D/A101T/S107K | GP_Gibbs | 0.44 | 6 of 6 | 0 of 18 |

Values of this round are not directly comparable with the first-round values of the same sequences.
Some sequences occur more than once in the pool; their replicates are pooled.
Background: pairings of all heavy chain designs with three empty control strains gave a value in 1% of cases (median 2.08, 5th percentile 0.84). Values in that range, when seen in few replicates, are hard to tell from nonspecific mating. Also given: how often the same scFv was detected with the empty control strains.
The authors averaged sequences with at least three values out of six and counted those with two or fewer as poor binders.